{"source": "paper PMC12674763", "about": "(JAC-Antimicrobial Resistance, 2025)", "tested_on": "HK-2 cells", "conditions": "P<0.0001 VRP-034 versus marketed PMB", "note": "Where two headings read alike, the source gives them in different places."}
{"substance": "Polymyxin B [marketed PMB]", "values": [{"measurement": "IC50, cytotoxicity", "setting": "24h", "result": 90.4, "unit": "µg/mL"}, {"measurement": "IC50, cytotoxicity", "setting": "48 h", "result": 48.5, "unit": "µg/mL"}]}
